Measured values from paper PMC5667506 (2015).
No end group written: not given here.

Legend:
[1] = molecular target: T1, p40-A1ERh metallopeptide (also: metal complex: dirhodium at Glu1); assay: ITC
T1 chain: E(dirhodium)PTYSPPPPP

[2] = molecular target: T2, p40-Y4ERh metallopeptide (also: metal complex: dirhodium at Glu4); assay: ITC
T2 chain: APTE(dirhodium)SPPPPP

B1: Abl SH3 (protein)
chain: PSENDPNLFVALYDFVASGDNTLSITKGEKLRVLGYNHNGEWCEAQTKNGQGWVPSNYITPVNSLEK
B1 gave a Kd [1] of 0.022 µM and a Kd [2] of 7.19 µM.
